Here are results for three compounds from article PMC11494340, “High-throughput screening for small-molecule stabilizers of misfolded glucocerebrosidase in Gaucher disease and Parkinson’s disease” (Proceedings of the National Academy of Sciences of the …, 2024).

This test deals with T1, HiBiT-GCase-L444P (Homo sapiens, UniProt P04062, L483P).
T1 sequence (P04062 40-536 L483P): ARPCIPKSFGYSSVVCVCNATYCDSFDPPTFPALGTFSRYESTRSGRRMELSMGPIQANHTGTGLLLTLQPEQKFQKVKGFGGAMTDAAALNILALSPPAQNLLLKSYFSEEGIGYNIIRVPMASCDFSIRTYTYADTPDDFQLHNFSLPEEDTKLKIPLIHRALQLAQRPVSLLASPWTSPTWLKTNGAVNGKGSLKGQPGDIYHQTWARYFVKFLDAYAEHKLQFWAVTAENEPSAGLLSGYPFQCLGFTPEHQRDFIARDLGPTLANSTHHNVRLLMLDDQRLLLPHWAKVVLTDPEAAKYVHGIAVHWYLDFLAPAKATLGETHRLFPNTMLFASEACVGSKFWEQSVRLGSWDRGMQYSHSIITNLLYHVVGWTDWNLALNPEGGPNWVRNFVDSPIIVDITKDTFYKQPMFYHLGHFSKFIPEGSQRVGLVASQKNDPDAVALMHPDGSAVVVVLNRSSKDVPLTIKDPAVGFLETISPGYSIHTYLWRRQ
Also on record: AUC: unit not given beside the values. The note with it: for Effect on HiBiT-GCase-L444P levels: 24 h treatment, 1536-well.

The term AC50 denotes the concentration at which the activity in the assay is half-maximal.

The structures appear in SMILES notation. Where a name gives a salt, the structure may show the parent alone. Peptide text beside a SMILES is read from it. * marks the point of attachment. Cbz = O=C(OCc1ccccc1)*

Take `CC(C)C[C@@H](C=O)NC(=O)[C@H](CC(C)C)NC(=O)[C@H](CC(C)C)NC(=O)OCc1ccccc1` [MG132] (Cbz-Leu-Leu-Leu-aldehyde): the “Effect on HiBiT-GCase-L444P levels” value was “selectively stabilized HiBiT-GCase-L444P”.
Same read-out and setting: as for `Cc1cc(OCc2nnc(SC3CCCC3)n2-c2cccnc2)ccc1-c1ccc(S(C)(=O)=O)cc1` [NCGC00371131-03, NMS-873], the entry is “selectively stabilized HiBiT-GCase-L444P”.
Where the note is “follow-up screen, 24 h”, `CNCCCC12CCC(c3ccccc31)c1ccccc12` [NCGC00390084-01, Maprotiline hydrochloride] yielded an AC50 of 53 µM and an AUC of -25.2. For the same compound, for the setting “qHTS curve class, follow-up screen, 24 h”, the CC-v2 is 2.2.
